The record followed here is article PMC8219027, “A small-molecule inhibitor of the BRCA2-RAD51 interaction modulates RAD51 assembly and potentiates DNA damage-induced cell death” (Cell Chemical Biology, 2021).

The assay addresses ChimRAD51 (Homo sapiens, UniProt Q06609). The conditions noted are these: read-out: Kd by FP against ChimRAD51; competition with labelled BRC4 repeat.

Molecules are shown by their SMILES.

Turning to `CSCC[C@H](NC(=O)[C@@H]1CCCN1C(=O)[C@@H](N)C(C)C)C(=O)NCC(=O)N[C@@H](Cc1ccccc1)C(=O)N[C@H](C(=O)N[C@H](C(=O)N[C@@H](C)C(=O)N[C@H](C(=O)N[C@@H](CCC(=O)O)C(=O)N[C@@H](Cc1ccccc1)C(=O)N[C@@H](Cc1c[nH]cn1)C(=O)N[C@@H](CCC(N)=O)C(=O)N[C@@H](CCCNC(=N)N)C(=O)N[C@@H](CCCNC(=N)N)C(=O)N[C@@H](CO)C(=O)O)[C@@H](C)O)[C@@H](C)O)[C@@H](C)O`, the Kd was determined as 18 µM.

With `CC(C)C[C@H](NC(=O)[C@H](CC(C)C)NC(=O)[C@@H](NC(=O)[C@@H]1CCCN1)[C@@H](C)O)C(=O)NCC(=O)N[C@@H](Cc1ccccc1)C(=O)N[C@@H](Cc1c[nH]cn1)C(=O)N[C@H](C(=O)N[C@@H](C)C(=O)N[C@@H](CO)C(=O)NCC(=O)N[C@@H](CCCCN)C(=O)N[C@@H](CCCCN)C(=O)N[C@H](C(=O)O)C(C)C)[C@@H](C)O`, the Kd was 36 µM.

What is called Kd is the concentration at which binding is half-saturated.
